Experimental data as given in the OPERA property sets (Mansouri et al. 2018).

Compound `CC(C)OP(=S)(OC(C)C)SCCNS(=O)(=O)c1ccccc1` has a logP of 4.2.
